Data: patent US20050238732A1, “Carbonated germicide with pressure control” (priority 2003, published 2005)

Settings: in the Example 17 test solution

## n-tetrabutylammonium iodide [Bu4NI]
  solubility: 57 mM
